# Only a part is listed here, and it is no random draw. Some structures show a salt or complex split into parts, the way the source records it. Calls of active or inactive are those of the source. Calls come from the whole dose curve; as a rule, active = well fitted activation curve with a large enough effect; inconclusive = small, poorly fitted or top-dose-only effect; inactive = no such curve, though single readings can be large or run the other way.
# Assay: qHTS Assay to Identify Small Molecule Activators of BRCA1 Expression; note: nearly all actives have a fitted effect of over 80% in size
# Details: MCF7-BRCA1-FFLuc reporter, luminescence, 48 h, scaled: vehicle 0%, 10 µM genistein 100%; at 46.1 µM (top of the series)
row,Compound,activation
1,O=[N+]([O-])c1cc([N+](=O)[O-])c(Nc2ccc(Cl)cc2)c([N+](=O)[O-])c1,inactive: -64.9%
2,COc1ccc(C(c2nnnn2C2CCCC2)N2CCC(n3c(=O)[nH]c4ccccc43)CC2)cc1 (stereo not drawn),inactive: -35.3%
3,CCCOc1ccc(C(=O)NCC2(N(C)C)CCCCC2)cc1OC,inactive: -3.51%
4,O=C(NCC1(N2CCOCC2)CCCCC1)c1ccccc1Br,inactive: 0.0551%
5,Cc1ccc(C(=O)NCC2(N(C)C)CCCCC2)o1,inactive: 1.23%
6,O=C(OC1CN2CCC1CC2)c1ccc([N+](=O)[O-])cc1 (stereo not drawn),inactive: 4.12%
7,O=C(NCC1(N2CCCCC2)CCCCC1)c1cncc(Br)c1,inactive: -8.65%
8,COc1ccc2c(c1O)-c1c(O)c(OC)cc3c1[C@H](C2)[N+](C)(C)CC3.O=[N+]([O-])c1cc([N+](=O)[O-])c([O-])c([N+](=O)[O-])c1[O-],inactive: 9.94%
9,CN1CCC(Nc2cccc(F)c2)CC1,inactive: -16.6%
10,CCC(c1nnnn1C(C)(C)C)N1CCC(n2c(=O)[nH]c3ccccc32)CC1 (stereo not drawn),inactive: 19.5%
11,O=C(NCC1(N2CCOCC2)CCCCC1)c1cc(F)c(F)cc1Cl,inactive: -14%
12,COc1cc(OC)c(C(=O)NCC2(N(C)C)CCCCC2)cc1OC,inactive: 9.37%
13,CCCCn1nnnc1C(c1ccnc2ccccc12)N1CCC(n2c(=O)[nH]c3ccccc32)CC1 (stereo not drawn),inactive: 0%
14,CCCCn1nnnc1C(c1ccccc1OC(F)(F)F)N1CCC(n2c(=O)[nH]c3ccccc32)CC1 (stereo not drawn),inactive: -65.3%
15,O=[N+]([O-])c1cc([N+](=O)[O-])c(OC2CCCCC2O)c([N+](=O)[O-])c1 (stereo not drawn),inactive: -20.2%
16,CN(C)c1cccc(C(=O)NCC2(N3CCCCC3)CCCCC2)c1,inactive: -8.61%
17,COc1ccc(CN(CCCl)CCCl)cc1Cl,inactive: 1.04%
18,COc1cc(C(=O)NCC2(N3CCCCC3)CCCCC2)ccc1OC(F)F,inactive: -28.2%
19,O=C(NCC1(N2CCOCC2)CCCCC1)c1cc(=O)[nH]c2ccccc12,inactive: -5.11%
20,CCCCn1nnnc1C(c1cccc2ccccc12)N1CCC(n2c(=O)[nH]c3ccccc32)CC1 (stereo not drawn),inactive: -47.5%
21,CN1CCN(CCOC(=O)C(O)(c2ccccc2)c2ccccc2)CC1,inactive: -22.4%
22,COc1ccc(NC2CCN(C(=O)OC(C)(C)C)CC2)cc1,inactive: 15.4%
23,CC(C)c1ccc(C(=O)NCC2(N3CCOCC3)CCCCC2)cc1,inactive: 10%
24,O=[N+]([O-])c1cc([N+](=O)[O-])c(NCC2CCS(=O)(=O)C2)c([N+](=O)[O-])c1 (stereo not drawn),inactive: -61.9%

row,Compound,activation
1,O=C(NCC1(N2CCCCC2)CCCCC1)c1cccc(C(F)(F)F)c1,inactive: -20.7%
2,N#CC1(Nc2ccccc2)CCN(CCc2ccccc2)CC1,inactive: 0.66%
3,O=c1[nH]c2ccccc2n1C1CCN(C(c2ccccc2OC(F)(F)F)c2nnnn2C2CCCC2)CC1 (stereo not drawn),inactive: -51.3%
4,CCN1CCC(Nc2ccc(Cl)cc2)CC1,inactive: -12.4%
5,CSc1ccc(C(=O)NCC2(N3CCOCC3)CCCCC2)cc1,inactive: -4.3%
6,CCOc1ccc(C(=O)NCC2(N3CCOCC3)CCCCC2)cc1,inactive: -16.5%
7,O=C(NCC1(N2CCCCC2)CCCCC1)c1cccc([N+](=O)[O-])c1,inactive: -10.8%
8,O=C(NCC1(N2CCCCC2)CCCCC1)c1ccc(OC(F)F)cc1,inactive: -16%
9,CC(C)(C)n1nnnc1C(c1ccccc1OC(F)(F)F)N1CCC(n2c(=O)[nH]c3ccccc32)CC1 (stereo not drawn),inactive: -65.3%
10,COc1cc(C(=O)NCC2(N(C)C)CCCCC2)ccc1OC(F)F,inactive: 3.81%
11,CCOC(=O)N1CCC(Nc2cccc(C)c2)CC1,inactive: -7%
12,O=c1[nH]c2ccccc2n1C1CCN(C(c2cccc3ccccc23)c2nnnn2C2CCCC2)CC1 (stereo not drawn),inactive: -48.9%
13,O=c1[nH]c2ccccc2n1C1CCN(C(c2ccccc2)c2nnnn2C2CCCCC2)CC1 (stereo not drawn),inactive: -17.2%
14,COc1ccccc1C(=O)NCC1(N2CCOCC2)CCCCC1,inactive: 8.96%
15,COc1ccc(NC2CCN(CCc3ccccc3)CC2)c(OC)c1,inactive: -22.7%
16,CCOC(=O)N1CCC(Nc2ccc(F)cc2)CC1,inactive: -2.04%
17,O=C(NCC1(N2CCCCC2)CCCCC1)c1ccc(F)cc1,inactive: -16.1%
18,O=P1(N(CCCl)CCCl)SCCCS1,inactive: -15.1%
19,CCCCn1nnnc1C(c1cc2ccccc2o1)N1CCC(n2c(=O)[nH]c3ccccc32)CC1 (stereo not drawn),inactive: -71.5%
20,CCCCOc1ccc(C(=O)NCC2(N3CCOCC3)CCCCC2)cc1,inactive: -2.89%
21,O=C1CCN(Cc2ccccc2)CC1,inactive: -15.7%
22,CC(C)(C)n1nnnc1C(c1ccccc1)N1CCC(n2c(=O)[nH]c3ccccc32)CC1 (stereo not drawn),inactive: -8.4%
23,O=C(NCC1(N2CCOCC2)CCCCC1)c1ccc(Cl)cc1,inactive: 4.67%
24,CCOc1ccc(C)cc1CN(CCCl)CCCl,inactive: -0.833%

row,Compound,activation
1,O=C1C(O)=C([N+](=O)[O-])C(=O)C(O)=C1[N+](=O)[O-],inactive: -17.2%
2,COc1ccc(Cl)cc1C(=O)NCC1(N2CCOCC2)CCCCC1,inactive: -12.5%
3,O=C(OC1CN2CCC1CC2)C1c2ccccc2Oc2ccccc21 (stereo not drawn),inactive: -12.8%
4,O=c1[nH]c2ccccc2n1C1CCN(C(c2cc3ccccc3o2)c2nnnn2C2CCCCC2)CC1 (stereo not drawn),inactive: -35.7%
5,N#CC1(Nc2ccccc2)CCN(Cc2ccccc2)CC1,inactive: 8.34%
6,O=C(NCC1(N2CCCCC2)CCCCC1)c1ccc(Cl)s1,inactive: -13.7%
7,CCCCn1nnnc1C(c1ccc(OC)cc1)N1CCC(n2c(=O)[nH]c3ccccc32)CC1 (stereo not drawn),inactive: -29.4%
8,CCOC(=O)N1CCC(Nc2ccc(OC)cc2)CC1,inactive: 3.29%
9,Cc1cc(C)cc(N(C(=O)c2ccccc2)C2CCN(C(=O)OC(C)(C)C)CC2)c1,inactive: -37.2%
10,O=c1[nH]c2ccccc2n1C1CCN(C(c2ccccc2OC(F)(F)F)c2nnnn2C2CCCCC2)CC1 (stereo not drawn),inactive: -34%
11,O=C(NCC1(N2CCCCC2)CCCCC1)c1ccc(Cl)nc1,inactive: -5.99%
12,O=C(NCC1(N2CCOCC2)CCCCC1)c1cc2ccccc2o1,inactive: -7.11%
13,Cc1cccc(NC2(C#N)CCN(Cc3ccccc3)CC2)c1,inactive: 1.41%
14,CSc1ccccc1C(=O)NCC1(N2CCCCC2)CCCCC1,inactive: -8.12%
15,CCC(c1nnnn1C1CCCC1)N1CCC(n2c(=O)[nH]c3ccccc32)CC1 (stereo not drawn),inactive: -9.11%
16,COc1ccc(C(=O)NCC2(N3CCCCC3)CCCCC2)c(OC)c1OC,inactive: -22.5%
17,CC(C)(C)OC(=O)N1CCC(N(C(=O)c2ccccc2)c2ccc(F)cc2)CC1,inactive: -8.32%
18,COc1ccc(C(=O)NCC2(N3CCCCC3)CCCCC2)cc1,inactive: -1.5%
19,CCCCn1nnnc1C(c1cccs1)N1CCC(n2c(=O)[nH]c3ccccc32)CC1 (stereo not drawn),inactive: -1.07%
20,CCCCn1nnnc1C(CC)N1CCC(n2c(=O)[nH]c3ccccc32)CC1 (stereo not drawn),inactive: 3.54%
21,O=C(NCC1(N2CCCCC2)CCCCC1)c1cccs1,inactive: -23.7%
22,O=C(NCC1(N2CCCCC2)CCCCC1)c1ccc(=O)[nH]c1,inactive: -5.53%
23,CN1CCC(Nc2ccc(Cl)cc2)CC1,inactive: 11.7%
24,COc1cc(C(=O)NCC2(N3CCOCC3)CCCCC2)cc(OC)c1OC,inactive: -0.368%

row,Compound,activation
1,COc1cccc(C(c2nnnn2C2CCCC2)N2CCC(n3c(=O)[nH]c4ccccc43)CC2)c1OC (stereo not drawn),inactive: -42.4%
2,COc1cc(OC)cc(C(=O)NCC2(N3CCOCC3)CCCCC2)c1,inactive: -6.74%
3,COc1cccc(C(=O)N(c2cc(C)cc(C)c2)C2CCN(C(=O)OC(C)(C)C)CC2)c1,inactive: -31.2%
4,CCC(CO)(C(=O)OC1CN2CCC1CC2)c1ccccc1 (stereo not drawn),inactive: -22.2%
5,O=C(O)C1(Nc2ccccc2)CCN(Cc2ccccc2)CC1,inactive: -5.81%
6,ClCCN(CCCl)c1ccc(C=C2C=CC=C2)cc1,inactive: 0%
7,NN(c1ccccc1)C1CCN(CCc2ccccc2)CC1,inactive: -0.881%
8,CC(C)(C)OC(=O)N1CCC(Nc2ccccc2)CC1,inactive: 0%
9,CCCOc1ccc(C(=O)NCC2(N(C)C)CCCCC2)cc1,inactive: 0.514%
10,O=c1[nH]c2ccccc2n1C1CCN(C(c2cc3ccccc3o2)c2nnnn2C2CCCC2)CC1 (stereo not drawn),inactive: -55.1%
11,ClCCN(CCCl)c1ccccc1,inactive: -15.1%
12,CN1CCC(Nc2ccc(F)c(Cl)c2)CC1,inactive: 4.29%
13,CCOc1ncccc1C(=O)NCC1(N2CCOCC2)CCCCC1,inactive: -4.75%
14,Cn1c(=O)[nH]cc(N(CCCl)CCCl)c1=O,inactive: -24.3%
15,CN(C)c1ccc(C(=O)NCC2(N3CCCCC3)CCCCC2)cc1,inactive: -2.43%
16,CC(C)(C)c1ccc(C(=O)NCC2(N3CCOCC3)CCCCC2)cc1,inactive: -6.07%
17,O=C(NCC1(N2CCCCC2)CCCCC1)c1ccco1,inactive: -23%
18,CC(C)(C)n1nnnc1C(c1ccnc2ccccc12)N1CCC(n2c(=O)[nH]c3ccccc32)CC1 (stereo not drawn),inactive: -26.6%
19,COc1ccc(C(c2nnnn2C2CCCCC2)N2CCC(n3c(=O)[nH]c4ccccc43)CC2)cc1 (stereo not drawn),inactive: -59.8%
20,CCN1CCC(Nc2cccc(F)c2)CC1,inactive: -18.8%
21,Cc1ccccc1NC1(C#N)CCN(Cc2ccccc2)CC1,inactive: 0.884%
